Molecular target: T1, HKU15 M^pro (Porcine deltacoronavirus, UniProt A0A0E3N825)
T1 construct: gene ORF1ab
Conditions: covalent; catalytic cysteine, active site, full occupancy in both protomers; cocrystallized at pH […]; twinned crystal

`COc1cccc2[nH]c(C(=O)N[C@@H](CC(C)C)C(=O)N[C@@H](C[C@@H]3CCNC3=O)C(=O)CO)cc12` [PF-00835231] was tested, and the X-ray cocrystal structure was “PF-00835231 bound at the active site of HKU15 M^pro, with the same binding mode”.
